Experimental data reported in paper PMC6400584, “Activation mechanism of ATP-sensitive K^+ channels explored with real-time nucleotide binding” (eLife, 2019).

Protein sequences, listed by entry. Tags and fused reporters are not part of them. Lines headed by an entry give the natural chain unless they say otherwise; changes in a name come on top.
UniProt Q09428, whole entry, stated change not applied: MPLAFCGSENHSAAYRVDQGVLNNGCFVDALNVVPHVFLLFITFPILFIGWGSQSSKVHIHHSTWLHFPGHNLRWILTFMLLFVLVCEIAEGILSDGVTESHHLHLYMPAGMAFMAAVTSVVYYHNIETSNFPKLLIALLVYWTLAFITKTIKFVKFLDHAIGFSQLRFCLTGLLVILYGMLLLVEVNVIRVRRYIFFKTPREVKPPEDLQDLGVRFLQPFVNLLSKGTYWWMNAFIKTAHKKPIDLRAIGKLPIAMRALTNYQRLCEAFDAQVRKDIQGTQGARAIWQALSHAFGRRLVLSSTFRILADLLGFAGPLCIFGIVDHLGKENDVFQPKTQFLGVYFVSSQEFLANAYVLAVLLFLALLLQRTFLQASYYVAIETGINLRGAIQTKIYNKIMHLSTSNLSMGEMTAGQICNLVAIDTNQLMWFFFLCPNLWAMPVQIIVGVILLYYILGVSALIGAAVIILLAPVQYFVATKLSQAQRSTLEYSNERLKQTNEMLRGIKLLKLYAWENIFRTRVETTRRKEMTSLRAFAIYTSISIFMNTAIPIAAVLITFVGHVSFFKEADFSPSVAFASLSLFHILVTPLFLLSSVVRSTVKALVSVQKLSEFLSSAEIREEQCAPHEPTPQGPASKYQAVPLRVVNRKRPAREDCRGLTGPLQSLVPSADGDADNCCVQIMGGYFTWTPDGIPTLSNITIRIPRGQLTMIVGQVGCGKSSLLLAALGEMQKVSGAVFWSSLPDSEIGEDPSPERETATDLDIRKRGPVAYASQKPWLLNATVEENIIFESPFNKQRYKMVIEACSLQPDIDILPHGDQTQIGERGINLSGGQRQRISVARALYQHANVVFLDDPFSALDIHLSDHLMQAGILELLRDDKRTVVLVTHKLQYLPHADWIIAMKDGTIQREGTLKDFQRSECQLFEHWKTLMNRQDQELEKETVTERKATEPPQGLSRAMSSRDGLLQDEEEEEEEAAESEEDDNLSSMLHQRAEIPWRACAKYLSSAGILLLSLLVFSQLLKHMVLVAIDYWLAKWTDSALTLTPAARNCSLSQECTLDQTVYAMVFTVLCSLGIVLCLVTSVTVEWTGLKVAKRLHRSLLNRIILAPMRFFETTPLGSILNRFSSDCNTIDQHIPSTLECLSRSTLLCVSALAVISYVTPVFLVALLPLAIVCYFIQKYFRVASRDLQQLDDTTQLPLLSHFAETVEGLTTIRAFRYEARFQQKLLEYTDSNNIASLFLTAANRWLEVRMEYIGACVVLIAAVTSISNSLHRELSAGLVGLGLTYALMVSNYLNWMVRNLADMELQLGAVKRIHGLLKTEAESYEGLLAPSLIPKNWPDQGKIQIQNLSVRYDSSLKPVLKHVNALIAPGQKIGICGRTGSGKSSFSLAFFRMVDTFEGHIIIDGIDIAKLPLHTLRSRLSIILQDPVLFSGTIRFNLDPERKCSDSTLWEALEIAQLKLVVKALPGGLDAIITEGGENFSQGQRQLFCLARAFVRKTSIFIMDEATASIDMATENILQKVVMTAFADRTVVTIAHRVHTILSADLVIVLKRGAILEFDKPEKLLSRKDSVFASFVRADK
UniProt Q14654, whole entry G334D partner: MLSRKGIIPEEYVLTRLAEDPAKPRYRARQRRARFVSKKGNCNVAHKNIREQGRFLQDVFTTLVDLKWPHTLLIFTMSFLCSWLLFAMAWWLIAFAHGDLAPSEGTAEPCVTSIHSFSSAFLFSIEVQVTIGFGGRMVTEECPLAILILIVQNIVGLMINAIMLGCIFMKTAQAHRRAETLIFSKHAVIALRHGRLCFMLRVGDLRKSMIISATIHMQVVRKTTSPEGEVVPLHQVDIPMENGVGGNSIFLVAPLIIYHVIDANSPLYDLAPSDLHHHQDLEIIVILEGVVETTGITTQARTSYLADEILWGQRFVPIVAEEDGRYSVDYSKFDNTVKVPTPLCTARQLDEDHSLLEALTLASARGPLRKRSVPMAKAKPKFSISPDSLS

Experiments:
[1] = molecular target: T1, SUR1-Y1353*,K2A/Kir6.2 (Homo sapiens, UniProt Q09428, K1384A/Y1353X); experiment: FRET binding of TNP-nucleotides to ANAP-labeled KATP in unroofed membrane fragments; settings: with Mg2+, tested form: Mg2+
Protocol: (§1) Unroofed membranes were prepared using a modification of a protocol from the Heuser laboratory ([Heuser, 2000]; [Usukura et al., 2012]; [Zagotta et al., 2016]). Briefly, a coverslip containing adherent cells was removed from the cell culture medium and a small piece (0.5–1 cm) was broken off using jewelers forceps (#5) and washed in phosphate buffered saline (PBS, Thermo Fisher Scientific) diluted 1:3 in deionized water. Cells were exposed 3 × 10 s to a solution of 0.01% poly-L-lysine (Sigma) with intervening washes in diluted PBS to adhere them more firmly to the coverslips. The coverslip fragment was then placed in a 30 mm culture dish filled with 2–3 mL of 1/3X PBS and sonicated very briefly (~100 ms) using a probe sonicator (Vibra-cell; Newtown, CT), leaving behind adherent plasma membrane and sometimes additional cellular material. The unroofed fragments in our experiments were sometimes visible under bright-field illumination, a potential result of our modified ‘unroofing’ procedure. Morphologically, such cell fragments resemble the ‘partially unroofed’ cells identified by Usukura et al. ([Usukura et al., 2012]) Cells cultured on poly-D-lysine coated FluoroDishes were unroofed in diluted PBS with no additional poly-L-lysine treatment. This procedure yielded a higher percentage of completely unroofed plasma membranes (i.e. nearly invisible with brightfield illumination).
(§2) Unroofed membrane fragments were imaged directly on FluoroDishes (FD35-PDL-100, World Precision Instruments) or on broken coverslips placed in a FluoroDish (FD3510, World Precision instruments) using a Nikon TE2000-U microscope equipped with a 40x (S Fluor, 1.3 NA; Nikon, Kingston Upon Thames, UK) or 100x (Apo TIRF, 1.49 NA, Nikon) oil-immersion objective and low-fluorescence immersion oil (MOIL-30, Olympus; Southend-on-Sea, UK) or a 60x water immersion objective (Plan Apo VC, 1.20 NA, Nikon). ANAP was excited using a ThorLabs LED source (LED4D067) at 385 nm connected to the microscope using a liquid light guide in series with a 390/18 nm band-pass filter (MF390-18, ThorLabs; Newton, NJ) and MD416 dichroic (ThorLabs). For imaging, emitted light was filtered through a 479/40 nm band-pass filter (MF479-40, ThorLabs). GFP-tagged constructs were imaged using a similar setup with excitation at 490 nm, a 480/40 band-pass excitation filter (Chroma; Bellows Falls, VT), a DM505 dichroic mirror (Chroma), and 510 nm long-pass emission filter (Chroma). All images were acquired using a PIXIS 400B CCD camera (Princeton Instruments; Trenton, NJ). For spectroscopy, ANAP was excited as above, but emitted light was passed through a 400 nm long-pass filter (FEL0400, ThorLabs) and directed through the slit of an Isoplane 160 spectrometer (300 g/mm grating; Princeton Instruments) in series with the camera. The acquired images retained spatial information in the y-dimension, with the x-dimension replaced by wavelength (Figure 1—figure supplement 1a). Exposure times were typically 100 ms for brightfield images, 1–10 s for steady-state spectra and 1–5 s for time-course experiments.
(§3) To prevent accumulation of fluorescent nucleotides in the bath, FluoroDishes were perfused with either (in mM) 140 KCl, 20 NaCl, 10 MgCl2, 10 HEPES pH 7.2 with NaOH or 140 KCl, 20 NaCl, 1 EDTA, 10 HEPES pH 7.2 with NaOH using a peristaltic pump (Ismatec; Wertheim, Germany). Unroofed membranes were directly perfused with nucleotides using an 8-channel µFlow perfusion system (ALA Scientific Instruments; Farmingdale, NY). Solution change with the µFlow was rapid (τ = 0.73 s±0.02 s, n=5) as measured from single exponential fits to wash-out of 50 µM tetramethylrhodamine-5-maleimide (TMRM) after switching to a solution with no TMRM. TMRM was excited with a 565 nm LED with a D540/25X band-pass filter (Chroma) and DM565 dichroic mirror (Chroma). Emitted light was collected through a D605/55M band-pass filter (Chroma). […]

[2] = molecular target: SUR1-Y1353*/Kir6.2 (NBS2 of SUR1) (Homo sapiens, UniProt Q09428, Y1353X); experiment: as above; settings: with Mg2+, tested form: Mg2+
Protocol: as §1, §2, §3

[3] = molecular target: SUR1-T1397*/Kir6.2 (Homo sapiens, UniProt Q09428, T1397X); experiment: as above; settings: with Mg2+, tested form: Mg2+
[4] = system: SUR1-Y1353*/Kir6.2-G334D; experiment: as above; settings: with Mg2+, tested form: Mg2+
[5] = system: SUR1-Y1353*/Kir6.2; experiment: Nucleotide wash-out (dissociation) time course; type: binding, Homo sapiens; settings: with Mg2+, tested form: Mg2+
[6] = molecular target: T1, SUR1-Y1353*,K2A/Kir6.2; experiment: Nucleotide wash-out (dissociation) time course; type: binding; settings: with Mg2+, tested form: Mg2+
From the text: as §3, with “[…] Solution exchange” for “Emitted light”, “also monitored during experiments with TNP-nucleotides by examining the emission spectrum of” for “collected through”, “background region in each image.” for “D605/55M band-pass filter (Chroma).”
To measure the time course of nucleotide unbinding, the fluorescence at the TNP-nucleotide peak (usually around 560 nm) was plotted as a function of time after exchanging to a zero-nucleotide solution, as following the time course of the rise in ANAP fluorescence was complicated by photobleaching. After complete wash out of nucleotides, the fluorescence at 560 nm was non-zero, as the shoulder of the ANAP emission spectrum extends into the range of wavelengths at which TNP-nucleotides emit. […]

[7] = molecular target: SUR1/Kir6.2-G334D (Homo sapiens, UniProt Q09428); experiment: Current activation in inside-out patches; type: biochemical; settings: tested form: Mg2+; for EC50: read-out: EC50 (current activation)
Protocol: Currents were recorded from inside-out membrane patches excised from transfected HEK-293T cells. Pipettes were pulled to a resistance of 1–5 MΩ and filled with an extracellular solution containing (in mM) 140 KCl, 1.2 MgCl2, 2.6 CaCl2, and 10 HEPES, pH 7.4 or 140 KCl, 1 EGTA, 10 HEPES, pH 7.3. The intracellular (bath) solutions contained either (in mM) 107 KCl, 2 MgCl2, 1 CaCl2, 10 EGTA, and 10 HEPES, pH 7.2 for experiments showing nucleotide-dependent activation or 140 KCl, 1 EDTA, 1 EGTA, 10 HEPES pH 7.3 for experiments showing nucleotide-dependent inhibition. Nucleotides were added as indicated. Patches were perfused with an 8-channel µFlow perfusion system. Data were acquired at a holding potential of −60 mV using an Axopatch 200B amplifier and Digidata 1322A digitizer with pClamp 9.0 software (Molecular Devices). Currents were digitized at 10 kHz and low-pass filtered at 1 kHz. KATP channels run down in excised patches (reviewed by Proks et al.) ([Proks et al., 2016]). For inhibitory concentration-response relationships, rundown was corrected by alternating test nucleotide solutions with nucleotide-free (control) solutions and expressing the test currents as a fraction of the average of the control currents before and after the test solution. […] For activation concentration-responses, the same protocol was used, but test concentrations were alternated with a saturating concentration (1 mM) of MgADP ([Proks et al., 2010]).
Currents were leak corrected by subtracting the remaining current after complete rundown.

[8] = system: SUR1-T1397*/Kir6.2-G334D; experiment: Current activation in inside-out patches; type: biochemical, Homo sapiens; settings: read-out: EC50 (current activation); mean ± SEM of fits of equation 5 to individual experiments; tested form: Mg2+
Protocol: Currents were recorded from inside-out membrane patches excised from transfected HEK-293T cells. Pipettes were pulled to a resistance of 1–5 MΩ and filled with an extracellular solution containing (in mM) 140 KCl, 1.2 MgCl2, 2.6 CaCl2, and 10 HEPES, pH 7.4 or 140 KCl, 1 EGTA, 10 HEPES, pH 7.3. The intracellular (bath) solutions contained either (in mM) 107 KCl, 2 MgCl2, 1 CaCl2, 10 EGTA, and 10 HEPES, pH 7.2 for experiments showing nucleotide-dependent activation or 140 KCl, 1 EDTA, 1 EGTA, 10 HEPES pH 7.3 for experiments showing nucleotide-dependent inhibition. Nucleotides were added as indicated. Patches were perfused with an 8-channel µFlow perfusion system. Data were acquired at a holding potential of −60 mV using an Axopatch 200B amplifier and Digidata 1322A digitizer with pClamp 9.0 software (Molecular Devices). Currents were digitized at 10 kHz and low-pass filtered at 1 kHz. KATP channels run down in excised patches (reviewed by Proks et al.) ([Proks et al., 2016]). For inhibitory concentration-response relationships, rundown was corrected by alternating test nucleotide solutions with nucleotide-free (control) solutions and expressing the test currents as a fraction of the average of the control currents before and after the test solution. […]

[9] = system: SUR1-T1397*/Kir6.2 (binding) and SUR1-T1397*/Kir6.2-G334D (current); experiment: Simultaneous fit of binding and current activation with gating models; settings: tested form: Mg2+; for E / KA: L = 0.52
[10] = mean ± SEM of fits to individual experiments
[11] = Equation 5 fit to combined data
[12] = mean ± SEM of fits of equation 5 to individual experiments
[13] = model (b): binding to a single SUR1 sufficient
[14] = model (c): binding to two SUR1 subunits required
[15] = model (e): all four SUR1 subunits must be occupied

## Nc1ncnc2c1ncn2[C@@H]1O[C@H](COP(=O)(O)OP(=O)(O)O)[C@H]2OC3(O[C@H]21)C([N+](=O)[O-])=CC(=[N+]([O-])[O-])C=C3[N+](=O)[O-] (stereo partly shown)
[1]; fit to combined data
  EC50: 12.5 µM
  Emax: 0.96 ± 0.04
  h: 0.9 ± 0.1
[1]; [10]
  EC50: 18.6 µM
  Emax: 0.97 ± 0.03
  h: 0.97 ± 0.07
[2]; fit of Equation 1 to combined data, ± standard error of fit
  Emax: 0.99 ± 0.02
[2]; fit to combined data
  EC50: 4.8 µM
  h: 0.8 ± 0.1
[2]; mean ± SEM of fits of equation 1 to individual experiments
  Emax: 0.99 ± 0.01
[2]; [10]
  EC50: 5.5 µM
  h: 0.77 ± 0.03
[2]
  fold lower binding EC50 than MgTNP-ATP: ~ 7 fold
[3]; fit to combined data
  EC50: 10.6 µM
  Emax: 1.0 ± 0.01
  h: 0.97 ± 0.06
[3]; [10]
  EC50: 10.8 µM
  Emax: 1.01 ± 0.005
  h: 0.98 ± 0.05
[4]; fit to combined data
  EC50: 7.7 µM
  Emax: 1.00 ± 0.04
[4]; [10]
  EC50: 8.2 µM
  Emax: 1.01 ± 0.04
[5]; in the presence of 340 µM diazoxide, mean ± SD
  t0.5 (time to 50% dissociation): 36.9 ± 9.4 s
[5]; in the presence of 500 µM tolbutamide, mean ± SD
  t0.5 (time to 50% dissociation): 4.5 ± 1.5 s
[5]; no drug, mean ± SD of individual fits
  t0.5 (time to 50% dissociation): 14.7 s and 14.7 ± 4.2 s
[5]; fit to combined data
  τ of dissociation (single exponential): 21.3 s
[6]; fit to combined data
  τ of dissociation (single exponential): 13.5 s
[6]; mean ± SD
  t0.5 (time to 50% dissociation): 9.3 ± 2.1 s
[7]; [11]
  h (current activation): 0.9 ± 0.1
  EC50: 22.1 µM
[7]; [12]
  h (current activation): 1.1 ± 0.2
  EC50: 20.6 µM
[8]
  EC50: 7.3 µM
[9]; MWC model, L fixed to 0.52
  E (factor by which binding favors activation): 2.2 ± 0.2 and 2.2
  KA (equilibrium association constant): 58000 M⁻¹
[9]; [13]
  E: 1
  KA: 53000 M⁻¹
[9]; [14]
  E: 1
  KA: 89000 M⁻¹
[9]; model (d): binding to three SUR1 subunits required
  KA: 54000 M⁻¹
[9]; [15]
  E: 279.2
  KA: 53000 M⁻¹

Values joined by “and” are separate entries in the source; they are usually repeats but may differ in a detail not shown here. Equal entries are not always repeated. Where two headings read alike, the source gives them in different places.
